# Test results published in IntAct's records for PubMed 20562920.
# B1: Zinc finger protein SNAI1 (Homo sapiens), O95863 (parent)
# chain: MPRSFLVRKPSDPNRKPNYSELQDSNPEFTFQQPYDQAHLLAAIPPPEILNPTASLPMLIWDSVLAPQAQPIAWASLRLQESPRVAELTSLSDEDSGKGSQPPSPPSPAPSSFSSTSVSSLEAEAYAAFPGLGQVPKQLAQLSEAKDLQARKAFNCKYCNKEYLSLGALKMHIRSHTLPCVCGTCGKAFSRPWLLQGHVRTHTGEKPFSCPHCSRAFADRSNLRAHLQTHSDVKKYQCQACARTFSRMSLLHKHQESGCSGCPR
# Variants of: B1
# Conditions: with kdm1a_human KDM1A
row,effect of a mutation on the interaction,Variant
1,disrupting interaction,MARSFLVRKPSDPNRKPNYSELQDSNPEFTFQQPYDQAHLLAAIPPPEILNPTASLPMLIWDSVLAPQAQPIAWASLRLQESPRVAELTSLSDEDSGKGSQPPSPPSPAPSSFSSTSVSSLEAEAYAAFPGLGQVPKQLAQLSEAKDLQARKAFNCKYCNKEYLSLGALKMHIRSHTLPCVCGTCGKAFSRPWLLQGHVRTHTGEKPFSCPHCSRAFADRSNLRAHLQTHSDVKKYQCQACARTFSRMSLLHKHQESGCSGCPR [P2A]
